Source: patent US6462016 (SHISEIDO, dated 2002)

How the values were obtained:
[1] = target: T1, maxadilan (recombinant represented by SEQ ID NO: 2, peptide fragment GSIL- bound to the N-terminal cysteine … (Lutzomyia longipalpis (sand fly), UniProt P30659 24-86)); experiment: ^125I-Max saturation binding and Scatchard plot, rabbit brain crude membrane fraction, filtration
[2] = target: T1, maxadilan (recombinant represented by …); experiment: ^125I-Max saturation binding and Scatchard plot, mouse brain crude membrane fraction
[3] = target: T1, maxadilan (recombinant represented by …); experiment: ^125I-Max saturation binding and Scatchard plot, rat brain crude membrane fraction
[4] = target: T1, maxadilan (recombinant represented by …); experiment: ^125I-Max saturation binding and Scatchard plot, cattle brain crude membrane fraction

B1: maxadilan receptor of the rabbit (maxadilan-specific receptor in crude membrane fractions from rabbit brain and rabbit spleen) (receptor)
chain: MAGVLQVSLAALLLLPAATAMHSDCIFKKEQALCLEKIQRANDLLGLNDSSPGCPGMWDNITCWKPAHVGEMVLVSCPELFRIFNPDQGEFDFAESTSLDLADMGVVSRNCTEDGWSEPFPHYFDACGFDEYESEPGDQDYYYLSVKALYTVGYSTSLVTLTTAMVILCRFRKLHCTRNFIHMNLFVSFMLRAISVFIKDWILYAEQDSNHCFVSTVECKAVMVFFHYCVVSNYFWLFIEGLYLFTLLVETFFPERRYFYWYTMIGWGTPTVCVAVWATLRLYFDDTGCWDMNDSTALWWVIKGPVVASIMVNFVLFIGIIIILVQKLQSPDTGGNESSIYLRLARSTLLLIPLFGIHYTVFAFSPENVSKRERLVFELGLGSFQGFVVAVLYCFLNGEVQAEIKRKWRSWKVNRYFAVDFKHRHPSLASSGVNGGTQLSILSKSSSQLRMSGLPADNLAT
Kd [1]: 0.066 nM

B2: maxadilan receptor of the mouse (in the crude membrane fraction from mouse brain) (receptor)
chain: MARTLQLSLTALLLLPMAIAMHSDCIFKKEQAMCLERIQRANDLMGLNESSPGCPGMWDNITCWKPAQIGEMVLVSCPEVFRIFNPDQVWMTETIGDSGFADSNSLEITDMGVVGRNCTEDGWSEPFPHYFDACGFDDYEPESGDQDYYYLSVKALYTVGYSTSLVTLTTAMVILCRFRKLHCTRNFIHMNLFVSFMLRAISVFIKDWILYAEQDSSHCFVSTVECKAVMVFFHYCVVSNYFWLFIEGLYLFTLLVETFFPERRYFYWYTIIGWGTPTVCVTVWAVLRLYFDDAGCWDMNDSTALWWVIKGPVVGSIMVNFVLFIGIIIILVQKLQSPDMGGNESSIYFSCVQKCYCKPQRAQQHSCKMSELSTITLRLARSTLLLIPLFGIHYTVFAFSPENVSKRERLVFELGLGSFQGFVVAVLYCFLNGEVQAEIKRKWRSWKVNRYFTMDFKHRHPSLASSGVNGGTQLSILSKSSSQLRMSSLPADNLAT
Kd [2]: 0.068 nM

B3: maxadilan receptor of the rat (in the crude membrane fraction from rat brain and on PC-12 cells) (receptor)
chain: MARVLQLSLTALLLPVAIAMHSDCIFKKEQAMCLERIQRANDLMGLNESSPGCPGMWDNITCWKPAQVGEMVLVSCPEVFRIFNPDQVWMTETIGDSGFADSNSLEITDMGVVGRNCTEDGWSEPFPHYFDACGFDDYEPESGDQDYYYLSVKALYTVGYSTSLATLTTAMVILCRFRKLHCTRNFIHMNLFVSFMLRAISVFIKDWILYAEQDSSHCFVSTVECKAVMVFFHYCVVSNYFWLFIEGLYLFTLLVETFFPERRYFYWYTIIGWGTPTVCVTVWAVLRLYFDDAGCWDMNDSTALWWVIKGPVVGSIMVNFVLFIGIIIILVQKLQSPDMGGNESSIYLTNLRLRVPKKTREDPLPVPSDQHSPPFLSCVQKCYCKPQRAQQHSCKMSELSTITLRLARSTLLLIPLFGIHYTVFAFSPENVSKRERLVFELGLGSFQGFVVAVLYCFLNGEVQAEIKRKWRSWKVNRYFTMDFKHRHPSLASSGVNGGTQLSILSKSSSQLRMSSLPADNLAT
Kd [3]: 0.161 nM

B4: maxadilan receptor of cattle (in the crude membrane fraction from bovine brain) (receptor)
chain: MRGGRHWPEPPCRLRSVMASIAQVSLAALLLLPMATAMHSDCIFKKEQAMCLEKIQRVNDLMGLNDSSPGCPGMWDNITCWKPAHVGEMVLVSCPELFRIFNPDQVWETETIGEFGFADSKSLDLSDMRVVSRNCTEDGWSEPFPHYFDACGFEEYESETGDQDYYYLSVKALYTVGYSTSLVTLTTAMVILCRFRKLHCTRNFIHMNLFVSFMLRAISVFIKDWILYAEQDSNHCFVSTVECKAVMVFFHYCVVSNYFWLFIEGLYLFTLLVETFFPERRYFYWYIIIGWGTPTVCVSVWAMLRLYFDDTGCWDMNDNTALWWVIKGPVVGSIMVNFVLFIGIIVILVQKLQSPDMGGNESSIYFSCVQKCYCKPQRAQQHSCKMSELSTITLRLARSTLLLIPLFGIHYTVFAFSPENVSKRERLVFELGLGSFQGFVVAVLYCFLNGEVQAEIKRKWRSWKVNRYFTMDFKHRHPSLASSGVNGGTQLSILSKSSSQIRMSGLPADNLAT
Kd [4]: 0.066 nM
